Experimental findings from patent US20090280112A1 (The Regents of the University of California, priority 2008, published 2009) are described below.

Amino acid sequences for entries named in this document (tags omitted). Residues count along the entry.
UniProt P08069, 741-1367 limits assumed: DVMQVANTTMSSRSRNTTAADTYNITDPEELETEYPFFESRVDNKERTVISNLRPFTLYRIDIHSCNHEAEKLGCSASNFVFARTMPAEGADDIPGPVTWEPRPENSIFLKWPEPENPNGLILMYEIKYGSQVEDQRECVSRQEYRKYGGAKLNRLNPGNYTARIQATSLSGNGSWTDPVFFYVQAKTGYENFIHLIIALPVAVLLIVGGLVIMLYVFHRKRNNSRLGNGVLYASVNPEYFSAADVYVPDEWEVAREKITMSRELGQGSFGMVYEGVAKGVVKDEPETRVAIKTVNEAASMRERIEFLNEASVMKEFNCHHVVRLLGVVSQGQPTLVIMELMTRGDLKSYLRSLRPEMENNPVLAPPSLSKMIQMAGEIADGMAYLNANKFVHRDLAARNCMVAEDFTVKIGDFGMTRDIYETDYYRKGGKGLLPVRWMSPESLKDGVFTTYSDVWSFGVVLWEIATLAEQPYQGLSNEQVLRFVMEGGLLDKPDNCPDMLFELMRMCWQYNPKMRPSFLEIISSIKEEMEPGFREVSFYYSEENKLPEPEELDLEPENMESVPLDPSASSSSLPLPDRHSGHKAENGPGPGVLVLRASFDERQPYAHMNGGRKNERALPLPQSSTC
UniProt P08069, 31-736 partner limits assumed: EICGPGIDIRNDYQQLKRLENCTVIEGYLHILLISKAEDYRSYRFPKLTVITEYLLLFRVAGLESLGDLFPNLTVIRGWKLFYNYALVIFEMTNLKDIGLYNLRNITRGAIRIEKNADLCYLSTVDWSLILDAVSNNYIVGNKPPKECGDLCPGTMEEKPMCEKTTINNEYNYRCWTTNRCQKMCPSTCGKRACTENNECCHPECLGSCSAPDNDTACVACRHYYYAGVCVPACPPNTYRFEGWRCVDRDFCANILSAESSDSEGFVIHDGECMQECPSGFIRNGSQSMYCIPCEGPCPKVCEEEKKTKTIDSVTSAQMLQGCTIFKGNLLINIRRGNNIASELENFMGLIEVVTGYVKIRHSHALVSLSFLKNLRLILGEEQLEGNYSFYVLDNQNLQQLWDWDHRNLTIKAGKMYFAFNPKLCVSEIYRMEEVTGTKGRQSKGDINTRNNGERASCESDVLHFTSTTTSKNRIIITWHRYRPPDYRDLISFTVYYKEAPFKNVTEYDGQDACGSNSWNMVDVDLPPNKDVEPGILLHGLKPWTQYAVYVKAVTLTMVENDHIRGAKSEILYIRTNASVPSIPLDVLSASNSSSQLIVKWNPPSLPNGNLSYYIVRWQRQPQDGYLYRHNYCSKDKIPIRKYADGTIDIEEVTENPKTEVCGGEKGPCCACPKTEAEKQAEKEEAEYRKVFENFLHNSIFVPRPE

This assay has as its target T1, IGF-1 receptor (Homo sapiens, UniProt P08069).
T1 construct: the effect of this agent on the IGF-1 receptor in prostate cancer cells was studied; endogenous in cells; host or cells: LAPC-4
Put plainly: Ligand-stimulated IGF-1 receptor autophosphorylation in LAPC-4 cells (ELISA). Particulars: 10-minute incubation with IGF-1. The format is cell-based.

Take “IGF-1: ligand of the IGF-1 receptor, from Insmed Corporation”: the “stimulation of IGF-1 receptor autophosphorylation” value reads like this: (cells incubated 1 day with DHT) “very little stimulation”; (cells incubated 3 days with DHT) 2 fold.
